# In PubChem BioAssay AID2036 (NMMLSC, 2009):
# Target: Ras-related protein Rab7, wildtype (dog)
# Assay: extra analogs blocking nucleotide binding to Rab7 – biochemical, additional analogs, wildtype, multiplex bead flow cytometry, SAR follow-up (AID 2036)
# Settings: Rab7 GTP binding, measured here: Ki from EC50
smiles,measurement,value
COc1ccc2cc([C@@H](C)C(=O)O)ccc2c1,Ki,90 nM
